## Binding of CDR-mutated scFvs to a peptide of the spike HR2 region

Binding partner: SARS-CoV-2 spike HR2 peptide, sequence PDVDLGDISGINAS.

Parent scFv Ab-14: VH joined to VL by the linker GGGGSGGGGSGGGGS. Changes lie in the light chain CDRs alone.
VH: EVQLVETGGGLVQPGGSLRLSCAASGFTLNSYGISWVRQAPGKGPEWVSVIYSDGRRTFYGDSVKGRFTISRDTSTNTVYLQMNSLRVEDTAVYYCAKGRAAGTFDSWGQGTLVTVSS
VL: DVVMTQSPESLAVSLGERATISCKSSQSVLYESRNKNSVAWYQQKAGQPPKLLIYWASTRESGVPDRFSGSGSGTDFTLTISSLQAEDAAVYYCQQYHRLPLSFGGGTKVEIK

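The parent was found by panning a naive human phage display library on the peptide. In library AAYL50, one, two or three CDR residues were substituted; doubles and triples were drawn at random. AlphaSeq pools MATa yeast showing the antibodies with MATalpha yeast showing the peptide. Pairs that bind mate more often; barcode pairs of the diploids are counted by sequencing. A regression on co-assayed BCL2-family reference pairs converts the normalised counts of each replicate to an apparent Kd. Each pool was mated in three replicate cultures.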

Changes read parent residue, position, new residue, counted from the first residue of the VL shown.
Scale: log10 of Kd in nM, estimated from mating counts; low values are strong binders.
Averages over replicates are reported, and they cover detected replicates only.
"not detected" means that the variant was in the library but no mating with the target was seen in any replicate; the authors take this as a sign of poor binding, and no number exists.
For reference, the parent read 0.65 as the reference entry and 1.68 as a member of this library.
Background: pairings of library AAYL50 with three empty control strains gave a value in 18% of cases (median 4.19, 5th percentile 2.99). Values in that range, when seen in few replicates, are hard to tell from nonspecific mating.

| changes | log10 Kd (nM), mean | seen in |
|---|---|---|
| K24D V29G R99I | 2.99 | 2 of 3 |
| L30D S38T Q95H | 4.66 | 2 of 3 |
| Q96R L102W | 1.15 | 3 of 3 |
| S38A S58R Q96D | 1.35 | 3 of 3 |
| K36D T59L S62F | 0.83 | 3 of 3 |
| L30F P101I S103M | 2.86 | 2 of 3 |
| S26W Y31S L100H | 2.12 | 3 of 3 |
| S38R R60N S103G | not detected | 0 of 3 |
| K24V S38A | 2.46 | 3 of 3 |
| V29H N37V T59W | 3.44 | 1 of 3 |
| S26E V29Q R60K | 2.21 | 3 of 3 |
| V39A T59R L102I | 4.47 | 3 of 3 |
| S25D K36M N37E | 2.30 | 3 of 3 |
| K24G Q95S | 3.98 | 3 of 3 |
| K24Y K36A N37L | 3.73 | 3 of 3 |
| E32D S62V Q95Y | 3.20 | 1 of 3 |
| L30D V39T A57N | 4.33 | 2 of 3 |
| R34D N35Q L100W | not detected | 0 of 3 |
| L30C P101S L102Y | 1.04 | 3 of 3 |
| L30S S62K Q96M | 1.14 | 3 of 3 |
| R34Q Y97H P101V | 0.54 | 3 of 3 |
| K36R S58K S103W | 3.75 | 2 of 3 |
| Q95T R99M L102M | 2.77 | 3 of 3 |
| L30E R34P E61P | 0.90 | 3 of 3 |
| K36W V39P L100Y | not detected | 0 of 3 |
| K24C S33P | 1.63 | 3 of 3 |
| W56S E61C S103P | -0.13 | 3 of 3 |
| T59V E61K L102N | not detected | 0 of 3 |
| Y31G R34Y S38H | 0.82 | 3 of 3 |
| Y31F A40R Y97P | not detected | 0 of 3 |
| K24Q K36C R99E | 3.69 | 3 of 3 |
| R34N N37S R60D | not detected | 0 of 3 |

The remaining entries, values ahead:

| log10 Kd (nM), mean | seen in | changes |
|---|---|---|
| 4.31 | 2 of 3 | R34C V39Y L102Q |
| not detected | 0 of 3 | S33K H98C P101V |
| 2.77 | 3 of 3 | K24C K36H S58N |
| not detected | 0 of 3 | L30S R60E S103M |
| not detected | 0 of 3 | S28T S33F Q96G |
| not detected | 0 of 3 | S28N A57H S103Y |
| 5.29 | 1 of 3 | S25Y S38E P101A |
| 2.21 | 1 of 3 | S25L K36R A57Y |
| not detected | 0 of 3 | W56P L100M S103I |
| 0.69 | 3 of 3 | K36V L102M |
| 5.20 | 1 of 3 | R60T Q96T |
| 4.17 | 2 of 3 | N37E S38T Q96V |
| 1.32 | 3 of 3 | Y97C L100A P101D |
| 0.21 | 3 of 3 | S38G W56S Y97R |
| 1.57 | 3 of 3 | L30G E32T N35Q |
| 4.71 | 2 of 3 | S28P S38L V39H |
| 3.07 | 1 of 3 | R34N A40N S58R |
| 5.32 | 1 of 3 | N37P S62L Q95F |
| 1.38 | 3 of 3 | R34H S38Q |
| 1.21 | 3 of 3 | S38M W56Y H98D |
| 5.18 | 1 of 3 | E32G A40R Q96T |
| not detected | 0 of 3 | V29H V39F R99P |
| 1.48 | 3 of 3 | K24Q S62W Q95C |
| not detected | 0 of 3 | A40W T59E S103N |
| not detected | 0 of 3 | W56V Y97M |
| 4.74 | 3 of 3 | K24R N35P W56P |
| not detected | 0 of 3 | Y97V S103E |
| not detected | 0 of 3 | A57L S58V L100A |
| 4.17 | 1 of 3 | K24C S33C Q96F |
| 4.78 | 1 of 3 | Y31H Y97V |
| 4.28 | 2 of 3 | Q27G E32Y V39E |
| 5.03 | 1 of 3 | E61M L100Y P101K |

A selection of 8 entries from above:

changes	log10 Kd (nM), mean	seen in
K24Q S62W Q95C	1.48	3 of 3
Y31H Y97V	4.78	1 of 3
S38M W56Y H98D	1.21	3 of 3
S38R R60N S103G	not detected	0 of 3
L30C P101S L102Y	1.04	3 of 3
S26E V29Q R60K	2.21	3 of 3
S25Y S38E P101A	5.29	1 of 3
Y31G R34Y S38H	0.82	3 of 3

Source: Engelhart et al. 2022 (doi:10.1038/s41597-022-01779-4), MIT Lincoln Laboratory and A-Alpha Bio; data file from the FLAb repository.